Assays:
[1] = target: Human IgG1 (Avastin, bevacizumab) (human); test: SPR; pH 6
[2] = target: Human IgG1 (Avastin, bevacizumab) (human); test: SPR; pH 7.4

Chains of the proteins cited; added tags and fusions are not shown. Chains listed by the source or under a name are the forms on record and can include a tag or linker.
Human IgG1 (Avastin, bevacizumab) (human), light, as listed by the source, chain 2 of 2: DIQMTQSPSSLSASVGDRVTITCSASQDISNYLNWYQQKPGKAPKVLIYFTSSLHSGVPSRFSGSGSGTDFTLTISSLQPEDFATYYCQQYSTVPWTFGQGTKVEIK
Human IgG1 (Avastin, bevacizumab) (human), heavy, as listed by the source, chain 1 of 2: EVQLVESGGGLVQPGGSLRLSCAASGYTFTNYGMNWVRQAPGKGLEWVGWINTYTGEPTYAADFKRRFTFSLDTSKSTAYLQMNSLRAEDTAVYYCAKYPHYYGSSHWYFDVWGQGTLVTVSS

Recombinant Protein A (SpA) (from UniProt P38507 37-477) (natural protein)
Kd [1]: 16 nM
koff [1]: 0.0012 s⁻¹
kon [1]: 80000 M⁻¹ s⁻¹
Kd [2]: 2 nM
koff [2]: 0.023 s⁻¹
kon [2]: 130000 M⁻¹ s⁻¹
